From article PMC12711630 (Cell Reports. Physical Science, 2025)

Protein sequences, listed by entry. Tags and fused reporters are not part of them. Residues count along the entry.
UniProt P36544, 23-502 limits assumed: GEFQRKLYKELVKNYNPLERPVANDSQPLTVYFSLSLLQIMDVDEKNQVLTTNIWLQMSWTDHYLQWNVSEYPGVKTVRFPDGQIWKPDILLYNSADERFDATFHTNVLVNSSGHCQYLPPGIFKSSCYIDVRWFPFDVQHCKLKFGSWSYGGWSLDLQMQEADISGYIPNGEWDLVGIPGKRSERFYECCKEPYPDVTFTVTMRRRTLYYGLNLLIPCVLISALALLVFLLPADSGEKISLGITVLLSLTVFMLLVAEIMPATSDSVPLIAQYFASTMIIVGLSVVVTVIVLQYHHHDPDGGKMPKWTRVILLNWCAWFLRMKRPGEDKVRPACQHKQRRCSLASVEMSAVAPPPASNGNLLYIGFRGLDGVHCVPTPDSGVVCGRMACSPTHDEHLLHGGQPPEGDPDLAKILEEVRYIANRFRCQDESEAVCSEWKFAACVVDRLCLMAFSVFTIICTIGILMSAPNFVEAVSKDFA

Target: human α7 nAChR (Homo sapiens, UniProt P36544)
Experiment: [125I]α-Bgtx radioligand binding (saturation and competition), membranes of transfected SH-SY5Y cells

## c1cnc2cc3c(cc2n1)[C@@H]1CNC[C@H]3C1 [Varenicline 1, varenicline, reference compound]
  Ki: 75 nM
